# US20060134102A1, “Lymphotoxin beta receptor agents in combination with chemotherapeutic agents” (Biogen Idec MA Inc., priority 2002, published 2006)
# Test system: WiDr human colorectal adenocarcinoma
# Assay: WiDr xenograft model: growth of established WiDr human colorectal tumors in athymic nude mice (tumor volume/weight, % T/C, Fa, Combination Index)
# Conditions: Adriamycin 6 mg/kg; day 35
compound,measurement,value
"COc1cccc2c1C(=O)c1c(O)c3c(c(O)c1C2=O)C[C@@](O)(C(=O)CO)C[C@@H]3O[C@H]1C[C@H](N)[C@H](O)[C@H](C)O1 [Adriamycin, adriamycin]","Tumor volume, individual animals",1059.5
